Earlier results as cited in paper PMC3572206 (Biomaterials, 2012).

Conditions: ref [11]; cited from earlier work

Nitric oxide
halflife in vivo: about 5 s
